Experimental data taken from US7230020B2, “11β-hydroxysteroid dehydrogenase inhibitors” (priority 2003, dated 2007).

Sequences of proteins named here, by UniProt entry; tags and fusion partners are left off. A change or cut given only in a name is not applied to a line headed by its entry.
UniProt P28845: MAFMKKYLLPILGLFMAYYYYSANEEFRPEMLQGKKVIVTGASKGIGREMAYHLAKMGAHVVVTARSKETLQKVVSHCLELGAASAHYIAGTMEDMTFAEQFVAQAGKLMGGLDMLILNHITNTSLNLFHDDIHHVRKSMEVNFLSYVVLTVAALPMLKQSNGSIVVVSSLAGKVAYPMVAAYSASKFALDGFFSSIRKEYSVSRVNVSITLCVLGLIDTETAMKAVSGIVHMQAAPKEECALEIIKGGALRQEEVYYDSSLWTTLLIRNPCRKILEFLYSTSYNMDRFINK

Target: T1, human hepatic microsomal 11β HSD1 (Homo sapiens, UniProt P28845)
T1 construct: human hepatic microsomes were obtained from XenoTech, product H0610/Lot 0210078; tissue XenoTech H0610/Lot 0210078; host or cells: human liver (hepatic microsomes)
Assay: biochemical
Conditions: classical enzyme assay, Buffer 1, 175 nM cortisone, 5 μg microsomal protein, 30 mins at 37° C. (FIG. 8)

SMILES: CC1(C)[C@@H](OC(=O)CCC(=O)O)CC[C@]2(C)[C@H]3C(=O)C=C4[C@@H]5C[C@@](C)(C(=O)O)CC[C@]5(C)CC[C@@]4(C)[C@]3(C)CC[C@@H]12 [carbenoxolone, Carbenoxolone, reference compound]
- IC50: 0.119 µM
